Data from patent US8410151B2, “Aminomethyl benzene derivatives” (Actelion Pharmaceuticals Ltd, priority 2009, dated 2013).

Amino acid sequences for entries named in this document (tags omitted).
UniProt P21453, whole entry: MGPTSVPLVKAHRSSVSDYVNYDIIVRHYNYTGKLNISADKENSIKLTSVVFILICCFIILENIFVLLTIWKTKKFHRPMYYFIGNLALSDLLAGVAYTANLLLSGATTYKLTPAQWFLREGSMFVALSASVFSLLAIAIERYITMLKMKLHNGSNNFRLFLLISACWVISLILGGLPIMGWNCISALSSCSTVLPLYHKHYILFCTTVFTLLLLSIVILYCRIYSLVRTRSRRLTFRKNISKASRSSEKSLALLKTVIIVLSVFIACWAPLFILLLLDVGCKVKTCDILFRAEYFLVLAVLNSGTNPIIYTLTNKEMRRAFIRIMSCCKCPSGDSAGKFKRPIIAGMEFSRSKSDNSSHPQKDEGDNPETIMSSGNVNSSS

Biological target: recombinant human S1P1 receptor (Homo sapiens, UniProt P21453)
Test: GTPγS assay to determine EC50 values
Format: biochemical
Settings: 35S-GTPγS binding, membrane preparations of CHO cells expressing recombinant human S1P1 receptor
Protocol: GTPγS binding assays are performed in 96 well microtiter plates (Nunc, 442587) in a final volume of 200 μl, using membrane preparations of CHO cells expressing recombinant human S1P1 receptor. Assay conditions are 20 mM Hepes (Fluka, 54461), 100 mM NaCl (Fluka, 71378), 5 mM MgCl2 (Fluka, 63064), 0.1% BSA (Calbiochem, 126609), 1 μM GDP (Sigma, G-7127), 2.5% DMSO (Fluka, 41644), 50 pM ^355-GTPγS (Amersham Biosciences, SJ1320). The pH is 7.4. Test compounds are dissolved and diluted in 100% DMSO and pre-incubated at room temperature for 30 min in 150 μl of the above assay buffer, in the absence of ^355-GTPγS. After addition of 50 μl of ^355-GTPγS, the assay is incubated for 1 h at rt. The assay is terminated by transfer of the reaction mixture to a Multiscreen plate (Millipore, MAHFC1H60) using a cell harvester from Packard Biosciences, and the plates are washed with ice-cold 10 mM Na2HPO4/NaH2PO4 (70%/30%), dried, sealed at the bottom and, after addition of 25 μl MicroScint20 (Packard Biosciences, order #6013621), sealed on the top. Membrane-bound ^35S-GTPγS is measured with a TopCount from Packard Biosciences.
EC50 is the concentration of agonist inducing 50% of the maximal specific ^35S-GTPγS binding. Specific binding is determined by subtracting non-specific binding from maximal binding. […]

EC50 | Structure (SMILES)
7.1 nM | CCc1cc(-c2noc(-c3ccc(CN(C)C)c(C)c3)n2)cc(C)c1OC[C@@H](O)CNC(=O)CO [Example 40, N—((S)-3-{4-[5-(4-dimethylaminomethyl-3-methyl-phenyl)-[1,2,4]oxadiazol-3-yl]-2-ethyl-6-methyl-phenoxy}-2-hydroxy-propyl)-2-hydroxy-acetamide]
4.1 nM | CCc1cc(-c2noc(-c3cc(C)cc(CN(C)C)c3)n2)cc(C)c1OC[C@@H](O)CNC(=O)CO [Example 15, N—((S)-3-{4-[5-(3-dimethylaminomethyl-5-methyl-phenyl)-[1,2,4]oxadiazol-3-yl]-2-ethyl-6-methyl-phenoxy}-2-hydroxy-propyl)-2-hydroxy-acetamide]
